Test results from US20230263751A1, “Compositions and Methods of Use of beta-hydroxy-beta-methylbutyrate (HMB) and Chemotherapy Agents” (Metabolic Technologies, LLC, priority 2020, published 2023).

Test system: EAC cells
Assay: Tumor growth inhibition and morphological evaluation of mice with EAC
Type: in vivo, Balb/c mice (Mus musculus)
Conditions: i.p. 9 days, Doxo 1 mg/kg/day, HMB 617.3 mg/kg/day, mean ± SD, n=6; for Body weight variation: weight before inoculation vs day of euthanasia
Description: Female (18 to 23 g weight, 60 days) Balb/c mice (Mus musculus) obtained from controlled reproduction carried out in the sectoral bioterium of the Federal University of Santa Catarina (Brazil), were kept in plastic cages under controlled environmental conditions (12 h light-dark cycle, 25±2° C., relative humidity 60%), receiving commercial feed and water ad libitum.
The moment before the tumor was inoculated, the abdominal circumference was measured. The treatments were administered intraperitoneally for 9 consecutive days. Twenty-four hours after the last treatment, all mice were weighed and their abdominal circumferences measured again. The inhibition (%) of tumour growth was calculated as follow: [(average in waist circumference of the treated group×100)/average in waist circumference of the control group]−100.
In addition, after euthanasia, all ascitic fluid was collected to measure volume and weight. Finally, Balb/c mice (n=12) were chosen at random and kept alive to assess the effects of HMB, Doxo and Doxo+HMB on survival time according to Kaplan and Meier (1958); survival assessments were discontinued after 30 days.

For `COc1cccc2c1C(=O)c1c(O)c3c(c(O)c1C2=O)C[C@@](O)(C(=O)CO)C[C@@H]3O[C@H]1C[C@H](N)[C@H](O)[C@H](C)O1` [Doxo, doxorubicin], the Ascitic fluid volume was 7.6 ± 1.3^α*** mL and the Body weight variation was 8.8 ± 1.6^α* g.
In the case of `CC(C)(O)CC(=O)O` [HMB, β-hydroxy-β-methylbutyrate], the Ascitic fluid volume is reported as 10.3 ± 1.3^α** mL and the Body weight variation is reported as 8.8 ± 1.4^α* g.
